## Ab-14 light chain CDR variants: yeast mating affinities

Data: MIT Lincoln Laboratory AlphaSeq set, Engelhart et al. 2022, doi:10.1038/s41597-022-01779-4, as distributed in FLAb.

Antigen: PDVDLGDISGINAS, a 14-residue peptide of the SARS-CoV-2 spike HR2 region.

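The parent was found by panning a naive human phage display library on the peptide. Variants in AAYL50 differ from the parent at up to three CDR positions; double and triple changes were sampled at random. The scFvs were displayed on barcoded MATa yeast, the peptide on MATalpha yeast. After mating in shaken culture at 30 °C for 16 h, diploids were selected and their barcode pairs sequenced. Scores were corrected for input abundance and mapped to Kd with protein pairs of known affinity run in the same pool. Each pool was mated in three replicate cultures.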

Ab-14 is the parent antibody, in scFv form: VH, then three GGGGS repeats, then VL. The heavy chain is unchanged in all variants.
VH: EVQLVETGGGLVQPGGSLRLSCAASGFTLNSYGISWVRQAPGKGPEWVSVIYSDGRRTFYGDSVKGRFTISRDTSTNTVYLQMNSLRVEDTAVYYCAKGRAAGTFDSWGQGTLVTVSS
VL: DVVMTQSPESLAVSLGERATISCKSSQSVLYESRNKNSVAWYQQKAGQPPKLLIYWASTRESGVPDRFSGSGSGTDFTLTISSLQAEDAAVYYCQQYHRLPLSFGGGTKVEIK

Positions count from residue 1 of the parent VL; S26D puts D in place of S.
Scale: log10 of Kd in nM, estimated from mating counts; low values are strong binders.
Where no diploid with the target was found in that replicate, the entry reads "n.d.": below detection, most likely a poor binder, though not proof of it.
In this assay the parent's reference entry averaged 0.65; its copy inside this library read 1.68.
Nonspecific signal, from three strains lacking the peptide, appeared in 18% of pairings of library AAYL50, centred on 4.19 (5% of these signals below 2.99); values are not corrected for it. The control count says in how many pairings with the empty strains this scFv gave a signal, with their mean in brackets.

| # | changes | log10 Kd, replicates | signal with controls |
|---|---|---|---|
| 1 | S26D/Q27I/N35G | 2.76 / n.d. / 4.06 | 4/9 (3.65) |
| 2 | N35P/S58W/R60Q | n.d. / n.d. / n.d. | 1/9 (3.65) |
| 3 | S26M/L100R/P101Q | 1.92 / 1.86 / 2.31 | 2/9 (4.88) |
| 4 | V29Y/L102M | 0.63 / 0.91 / 0.97 | 0/9 |
| 5 | R34D/S38M/S58R | 1.91 / 2.09 / 2.18 | 2/9 (4.30) |
| 6 | K24L/N37H/A40M | n.d. / 4.02 / n.d. | 4/9 (5.19) |
| 7 | S38N/A57E/L100E | n.d. / n.d. / 2.54 | 0/9 |
| 8 | W56Q/H98M/L100A | 0.22 / 0.45 / 0.33 | 5/9 (5.23) |
| 9 | H98S | 1.12 / 1.37 / 1.08 | 0/9 |
| 10 | Q27T/S28Q/S33C | n.d. / n.d. / 4.99 | 3/9 (4.12) |
| 11 | Y31R/S62E/Q96D | 1.13 / 1.26 / 1.41 | 1/9 (4.37) |
| 12 | E32D/T59I/S103K | 0.49 / 0.65 / 0.59 | 1/9 (3.22) |
| 13 | R34L/Q95T/H98Q | n.d. / n.d. / n.d. | 3/9 (4.23) |
| 14 | K36N/Q95A/S103A | 4.10 / 3.40 / 4.07 | 1/9 (3.18) |
| 15 | A40V/W56M | n.d. / n.d. / n.d. | 0/9 |
| 16 | S28L/S58I/H98A | 2.25 / 2.30 / 2.91 | 0/9 |
| 17 | A57G/S58F/T59H | 1.22 / 1.49 / 1.62 | 2/9 (4.12) |
| 18 | E32A/H98K/L102D | 1.11 / 1.02 / 0.58 | 0/9 |
| 19 | S26K/Y31G/N37F | 1.65 / 1.76 / 2.65 | 0/9 |
| 20 | A57K/Q96K/R99Y | n.d. / n.d. / n.d. | 0/9 |
| 21 | R34T/H98R/L100K | n.d. / n.d. / n.d. | 0/9 |
| 22 | L30Y/V39S | 4.27 / 5.03 / 4.49 | 7/9 (4.72) |
| 23 | V29W/Y31S/H98E | 1.29 / 1.40 / 1.17 | 2/9 (4.68) |
| 24 | Y31C/V39Y/S58F | n.d. / n.d. / n.d. | 0/9 |
| 25 | E32C/K36D/L100H | 4.60 / 3.45 / n.d. | 4/9 (4.79) |
| 26 | V39T/S58E/E61P | n.d. / 3.14 / 5.85 | 4/9 (4.62) |
| 27 | V29C/S62R/S103W | 2.72 / 2.56 / 3.42 | 2/9 (3.91) |
| 28 | N35S/S38D/Q96E | n.d. / n.d. / n.d. | 0/9 |
| 29 | S26P/V29A/Y97V | 1.17 / 1.52 / 1.18 | 4/9 (4.65) |
| 30 | K24L/S62K/Q95S | 1.13 / n.d. / 1.69 | 0/9 |
| 31 | S38V/W56K/L100A | n.d. / n.d. / n.d. | 2/9 (4.36) |
| 32 | K24A/T59F/Q95K | 3.47 / 2.93 / 3.97 | 1/9 (3.77) |
| 33 | S25Q/E32Q/N35E | 2.04 / 2.11 / 2.01 | 1/9 (4.84) |
| 34 | K24G/K36C/P101Y | n.d. / n.d. / 5.12 | 4/9 (4.34) |
| 35 | V39M/T59Q/E61K | 4.79 / 3.25 / 2.78 | 2/9 (3.63) |
| 36 | R34W/A57V/S58C | n.d. / 4.58 / n.d. | 3/9 (4.45) |
| 37 | A40E/R60W/Y97M | n.d. / n.d. / n.d. | 0/9 |
| 38 | S33K/S38R/L100D | n.d. / n.d. / n.d. | 0/9 |
| 39 | N35P/A40F/Y97F | n.d. / n.d. / n.d. | 0/9 |
| 40 | K24T/R60C/Q95N | n.d. / 4.08 / 5.36 | 3/9 (4.21) |
| 41 | Q27Y/S28K/A57R | 4.90 / n.d. / 5.11 | 4/9 (4.56) |
| 42 | K24D/N37K/S58T | 3.29 / 2.80 / n.d. | 2/9 (3.80) |
| 43 | Q27D/E61N/Q95H | n.d. / n.d. / n.d. | 0/9 |
| 44 | Y31D/W56A/R99K | -0.23 / 0.05 / -0.15 | 5/9 (5.06) |
| 45 | S38V/T59G/R99V | n.d. / n.d. / 3.95 | 2/9 (4.54) |
| 46 | K36P/A57R/L100S | n.d. / 3.51 / n.d. | 1/9 (3.18) |

Excerpt, the first 3 entries:

| changes | log10 Kd, replicates | signal with controls |
|---|---|---|
| S26D/Q27I/N35G | 2.76 / n.d. / 4.06 | 4/9 (3.65) |
| N35P/S58W/R60Q | n.d. / n.d. / n.d. | 1/9 (3.65) |
| S26M/L100R/P101Q | 1.92 / 1.86 / 2.31 | 2/9 (4.88) |